Reference: US20060079503A1, “Thiazolidinones and the use therof as polo-like kinase inhibitors” (SCHERING AKTIENGESELLSCHAFT, priority 2002, published 2006)

Amino acid sequences for entries named in this document (tags omitted).
UniProt P53350, whole entry: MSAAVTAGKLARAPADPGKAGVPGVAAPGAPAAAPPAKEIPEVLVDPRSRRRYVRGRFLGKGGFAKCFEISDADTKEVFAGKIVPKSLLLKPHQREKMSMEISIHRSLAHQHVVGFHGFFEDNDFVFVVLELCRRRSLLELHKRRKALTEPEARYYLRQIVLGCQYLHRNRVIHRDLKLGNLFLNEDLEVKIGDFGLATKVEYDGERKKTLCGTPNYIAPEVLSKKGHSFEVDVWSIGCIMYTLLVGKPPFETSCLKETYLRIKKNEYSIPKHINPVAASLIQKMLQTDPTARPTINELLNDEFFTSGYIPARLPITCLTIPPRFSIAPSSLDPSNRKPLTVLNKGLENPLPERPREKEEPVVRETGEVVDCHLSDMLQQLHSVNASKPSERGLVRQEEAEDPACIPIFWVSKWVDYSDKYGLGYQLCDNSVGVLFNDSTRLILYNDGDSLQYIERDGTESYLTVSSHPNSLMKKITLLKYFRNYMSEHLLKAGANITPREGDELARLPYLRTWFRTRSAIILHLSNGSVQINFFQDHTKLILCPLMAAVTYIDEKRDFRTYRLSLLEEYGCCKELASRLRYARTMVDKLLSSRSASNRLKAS

Molecular target: Recombinant human Plk-1 (6×His) (Homo sapiens, UniProt P53350)
Assay: PLK enzyme assay (33P-γ-ATP incorporation into biotinylated casein, SPA beads)
Conditions: read-out: Inhibition of PLK-1 IC50; 10 ng PLK enzyme, 90 minutes at room temperature, 0.5 μmol of ATP, casein substrate
Method: Recombinant human Plk-1 (6×His) was purified from baculovirus-infected insect cells (Hi5).
10 ng of (produced in a recombinant manner and purified) PLK enzyme is incubated for 90 minutes at room temperature with biotinylated casein and 33P-γ-ATP as a substrate in a volume of 15 μl in 384-well Greiner small-volume microtiter plates (final concentrations in the buffer: 660 ng/ml of PLK; 0.7 μmol of casein, 0.5 μmol of ATP incl. 400 nCi/ml of 33P-γ-ATP; 10 mmol of MgCl2, 1 mmol of MnCl2; 0.01% NP40; 1 mmol of DTT, protease inhibitors; 0.1 mmol of Na2VO3 in 50 mmol of HEPES, pH 7.5). To complete the reaction, 5 μl of stop solution (500 μmol of ATP; 500 mmol of EDTA; 1% Triton X100; 100 mg/ml of streptavidin-coated SPA beads in PBS) is added. After the microtiter plate is sealed by film, the beads are sedimented by centrifuging (10 minutes, 1500 rpm). The incorporation of 33P-γ-ATP in casein is intended as a measurement of enzyme activity by β-counting.
Test substances are used in various concentrations (0 μmol, as well as in the range of 0.01-30 μmol). The final concentration of the solvent dimethyl sulfoxide is 1.5% in all batches.

IC50 [nM] | Compound
2200 | CCOC(=O)C(C#N)=c1sc(=CNC(=O)OC)c(=O)n1CC (single isomer, unassigned) [56]
410 | CCOC(=O)C(C#N)=c1sc(=CNc2ccc(C(N)=O)cc2)c(=O)n1CC (mixture of isomers) [Example 10, (E or Z)-{5-(E/Z)-[(4-Carbamoyl-phenylamino)-methylene]-3-ethyl-4-oxo-thiazolidin-2-ylidene}-cyanoacetic acid ethyl ester]
1500 | CCOC(=O)C(C#N)=c1sc(=CNC(=O)OC)c(=O)n1CC (single isomer, unassigned) [55]
